From PubChem BioAssay AID576 (NMMLSC, 2007)
The list shows a part of the results, in another mix than the full data. Some results for these compounds are left out of this collection, so the calls shown say nothing about other tests. Calls of active or inactive are those of the source.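 The calls were made as follows: active = fluorescence ratio above 2.44, which is 1 plus 3 SD of all ratios; inconclusive = signal too bright to measure linearly, ratio around 10 or more; inactive = fluorescence ratio below 2.44.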

Experiment: compound autofluorescence on Jurkat cells, primary screen, artefact control for VLA-4 allosteric ligand project, cell-based, flow cytometry (AID 576);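 also: green fluorescence of cells measured with 488 nm excitation and 530 nm emission; tested at 10 µM compound in the well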
Conditions: active compounds read high, 1 = vehicle-only cell background
In the case of O=C(OC1CN2CCC1CC2)C(CO)(c1ccccc1)c1ccccc1 (stereo unspecified), the fluorescence ratio is reported as inactive: 0.96.
